Laboratory results from patent publication US4526891A, “Substituted alkyl amine derivatives of 6,11-dihydro-11-oxodibenz[b,e]oxepins” (Hoechst Roussel Pharmaceuticals Inc., priority 1983, dated 1985).

Tested on: 2-phenyl-1,4-benzoquinone-induced writhing
Experiment: 2-phenyl-1,4-benzoquinone-induced writhing test in mice (analgesia)
Assay type: in vivo
Settings: oral dose

O=C1c2ccccc2COc2ccc(CCN3CCC(n4c(=O)[nH]c5ccccc54)CC3)cc21
ED50 (dosage which exhibits 50% inhibition of writhing): 22.7 mg/kg of body weight
